These results are taken from patent publication US11708500B2, “Solvent compounds for use as coalescents” (TBF ENVIRONMENTAL TECHNOLOGY INC., priority 2017, dated 2023).

SMILES strings stand for the structures.

This series is described as follows: Physical/chemical properties of XTR5.

Turning to `CCCCOCC(C)OC(=O)OC(C)COCCCC` (centres unmarked) [XTR5, bis(1-butoxypropan-2-yl) carbonate], the “Lower Explosive Limit (LEL %)” value came to 0.40% and the “Upper Explosive Limit (UEL %)” value is given as 7.04%.
